Biological target: hNav1.7 (Homo sapiens (Human), UniProt Q15858)
Assay: Tritiated sulfonamide competitive binding to membranes from cells expressing hNav1.7 and the β1 subunit;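 note: Filter-bound radioactivity counted by liquid scintillation, nonspecific binding defined with excess unlabelled ligand, IC50 fitted to percent inhibition of specific binding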

Chains of the proteins cited; added tags and fusions are not shown. A line that says so, or that is headed by a name, gives the form on record, which may keep a tag or linker.
UniProt Q15858, other isoform, or with tags, fused parts or gaps: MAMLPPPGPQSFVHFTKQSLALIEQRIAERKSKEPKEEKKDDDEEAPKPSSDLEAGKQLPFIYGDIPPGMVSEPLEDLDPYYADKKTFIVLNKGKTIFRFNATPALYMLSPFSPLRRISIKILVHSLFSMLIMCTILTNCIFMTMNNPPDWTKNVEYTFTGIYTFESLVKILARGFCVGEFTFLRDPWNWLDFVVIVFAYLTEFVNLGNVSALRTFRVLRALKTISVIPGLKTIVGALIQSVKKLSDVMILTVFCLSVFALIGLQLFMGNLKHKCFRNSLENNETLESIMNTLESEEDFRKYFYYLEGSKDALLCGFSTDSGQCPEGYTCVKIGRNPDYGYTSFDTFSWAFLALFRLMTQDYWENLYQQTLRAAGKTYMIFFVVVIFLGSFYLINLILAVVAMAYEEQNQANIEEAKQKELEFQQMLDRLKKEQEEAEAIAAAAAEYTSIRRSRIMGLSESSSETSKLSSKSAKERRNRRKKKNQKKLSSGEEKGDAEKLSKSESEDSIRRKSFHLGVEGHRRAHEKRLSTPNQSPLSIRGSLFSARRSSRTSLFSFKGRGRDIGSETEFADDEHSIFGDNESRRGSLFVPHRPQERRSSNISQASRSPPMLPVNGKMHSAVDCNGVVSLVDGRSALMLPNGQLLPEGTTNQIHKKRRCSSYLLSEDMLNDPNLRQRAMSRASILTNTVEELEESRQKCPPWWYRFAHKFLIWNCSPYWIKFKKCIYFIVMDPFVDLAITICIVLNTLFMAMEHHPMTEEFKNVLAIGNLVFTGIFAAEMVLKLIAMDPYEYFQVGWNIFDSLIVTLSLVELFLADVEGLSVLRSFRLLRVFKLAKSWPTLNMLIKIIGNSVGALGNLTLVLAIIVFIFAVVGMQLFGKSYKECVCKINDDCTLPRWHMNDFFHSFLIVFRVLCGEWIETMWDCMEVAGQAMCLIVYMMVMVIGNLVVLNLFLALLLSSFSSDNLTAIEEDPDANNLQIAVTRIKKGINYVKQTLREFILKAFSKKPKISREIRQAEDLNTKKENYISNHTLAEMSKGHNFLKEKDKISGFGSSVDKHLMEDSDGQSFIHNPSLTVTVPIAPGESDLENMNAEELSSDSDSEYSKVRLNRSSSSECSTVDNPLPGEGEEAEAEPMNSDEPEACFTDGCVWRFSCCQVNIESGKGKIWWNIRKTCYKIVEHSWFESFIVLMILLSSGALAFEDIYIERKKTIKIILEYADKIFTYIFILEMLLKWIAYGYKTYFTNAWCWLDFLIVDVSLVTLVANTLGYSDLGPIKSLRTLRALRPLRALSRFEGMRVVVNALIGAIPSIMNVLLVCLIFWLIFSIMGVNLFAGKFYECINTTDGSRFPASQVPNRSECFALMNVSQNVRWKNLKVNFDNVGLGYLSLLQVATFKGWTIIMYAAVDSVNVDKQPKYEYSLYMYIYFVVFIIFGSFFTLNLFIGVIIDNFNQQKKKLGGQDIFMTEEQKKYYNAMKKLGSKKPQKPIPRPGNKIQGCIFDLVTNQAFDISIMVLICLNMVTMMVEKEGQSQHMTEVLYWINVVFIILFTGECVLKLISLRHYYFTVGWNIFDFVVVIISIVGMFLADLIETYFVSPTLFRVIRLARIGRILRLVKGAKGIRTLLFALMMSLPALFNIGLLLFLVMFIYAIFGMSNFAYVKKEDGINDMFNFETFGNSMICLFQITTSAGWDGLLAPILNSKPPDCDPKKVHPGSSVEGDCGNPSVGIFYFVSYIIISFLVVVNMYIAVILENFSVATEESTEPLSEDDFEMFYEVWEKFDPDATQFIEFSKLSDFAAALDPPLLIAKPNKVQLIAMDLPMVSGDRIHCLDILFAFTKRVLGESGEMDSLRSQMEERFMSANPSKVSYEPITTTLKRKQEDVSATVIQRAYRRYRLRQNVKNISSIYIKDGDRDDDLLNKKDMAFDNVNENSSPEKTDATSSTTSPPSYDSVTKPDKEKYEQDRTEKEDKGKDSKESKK

## O=C(NS(=O)(=O)C1CC1)c1cc(C2CC2)c(O[C@@H]2CCCN(c3ccccc3)C2)cc1F [Example 40, (R)-5-cyclopropyl-N-(cyclopropylsulfonyl)-2-fluoro-4-((1-phenylpiperidin-3-yl)oxy)benzamide]
  IC50: 8.4 nM
